Several values for one entry are separate records, joined by “and”; a condition that tells them apart may be missing. Identical values can stand only once.

What is called IC50 is the point on the concentration scale where inhibition reaches its midpoint. Low values mean higher potency, high ones lower potency.

This test relates to H3677 melanoma cell line. Format: cell-based.
Take Mel-D-Phe-NH2: the IC50 worked out at 2680 nM.
In the case of “Melphalan Menthol Ester [melphalan menthyl ester]” it was 28000 nM; in that of Mel-L-Phe-NH2, 30 nM and 40 nM.
